# AlphaSeq binding of Ab-14 light chain variants to a spike HR2 peptide

Source: Li et al. 2023 (doi:10.1038/s41467-023-39022-2), MIT Lincoln Laboratory and A-Alpha Bio; data file from the FLAb repository.

All variants were tested on one target, the spike HR2 peptide PDVDLGDISGINAS (SARS-CoV-2).

Parent: Ab-14, a human scFv built as VH, a 15-residue (Gly4Ser)3 linker, VL. Only the CDRs of the light chain vary.
VH: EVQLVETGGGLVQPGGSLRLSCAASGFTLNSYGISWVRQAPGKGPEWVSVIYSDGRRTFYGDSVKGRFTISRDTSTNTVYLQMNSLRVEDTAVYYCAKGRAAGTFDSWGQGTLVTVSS
VL: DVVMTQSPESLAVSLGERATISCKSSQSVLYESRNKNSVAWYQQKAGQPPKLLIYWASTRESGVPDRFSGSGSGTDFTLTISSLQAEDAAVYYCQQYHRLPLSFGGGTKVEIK

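Phage display of a naive human antibody library on the peptide gave the parent. These sequences belong to a second round, designed from the earlier measurements on random variants of the parent. Group labels follow the data file (Ctrl: baseline library sampled from a position-specific scoring matrix, with some repeated check sequences; En: ensemble of fine-tuned language models; GP: Gaussian process model; HC: hill climbing; Gen: genetic algorithm; Gibbs: Gibbs sampling; a sequence that several methods proposed may carry one label only). AlphaSeq pools MATa yeast showing the antibodies with MATalpha yeast showing the peptide. The frequency of each diploid, read from paired DNA barcodes, reflects how well the two displayed proteins bind. Scores were corrected for input abundance and mapped to Kd with protein pairs of known affinity run in the same pool. Each pool was mated in six replicate cultures.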

The parent's light chain CDRs are KSSQSVLYESRNKNSVA, WASTRES, QQYHRLPLS; each variant's own CDRs replace them letter for letter.
Values are log10 of the apparent Kd in nM; lower means stronger binding.
"nd" marks a missing value. The strain was present, yet no cells mated with the target were sequenced in that replicate, which points to weak or no binding.
The range of this assay differs from that of the first round, and the authors advise against merging the two.

CDR-L1	CDR-L2	CDR-L3	group	replicates, log10 nM
KSSQSVLYESRGKNSVA	WASTRES	QAYHRLPLS	Ctrl	nd 2.33 nd nd nd 2.75
KQSQSFLYESRNVNSVA	GASTRDS	QQYHRLPLS	GP_HC	-0.16 -0.29 -0.29 -0.18 -0.38 -0.10
KLLQTVMNETRNRNNVA	HMTTRED	QQYHRLPLS	En_HC	0.70 0.54 0.61 0.45 0.35 0.72
SVTNETDGNGLKWNSVA	DAAELMT	QQYFRLPLT	En_Gibbs	0.77 0.64 0.44 0.44 0.82 0.73
KQSQSVLYESPNKNSVA	WASTRVR	QQLHRMPLS	Ctrl	nd nd nd nd nd nd
MISQLMNMGQFAINSVA	QASIRNA	QQYDRLPLA	En_Gen	1.48 1.24 1.01 1.21 1.11 0.68
KSSQSWLYEDRVKNSVA	GASTRLS	QQYHRLPLS	GP_HC	0.23 0.01 0.17 -0.25 0.08 0.28
VLQQSGLYESRNKNSVA	SASTRLP	QQYHRLPLS	GP_Gibbs	0.35 0.18 0.18 0.13 0.18 0.30
KITATMRFEQKQKNNIA	EVTTRSK	QQYYRLPLS	En_Gen	1.26 1.35 1.14 0.76 1.65 0.77
QLLYATMQGTYNRNSVA	HAETRED	QSYHRLPLS	En_HC	2.56 nd 1.41 nd 3.65 nd
KLSPSVLGMWRNKNSVA	NASTRES	QQYHRLPLS	GP_Gibbs	0.12 -0.01 -0.21 -0.30 -0.02 0.22
HSSPSVPYESRNKNSVA	NASTRES	QDYHRLPLS	GP_HC	0.23 0.27 0.19 -0.08 0.24 0.19
IVSQLMLWGYKAKNSIA	EAQTRVN	QQYDRLPLI	En_Gen	1.03 1.90 0.82 nd 0.59 1.37
KSSQNVLYESTNPNSVA	MASTRES	QQYHRLPLS	Ctrl	0.96 1.11 0.94 0.25 1.40 0.99
KLEQSTLYEERMCNSVA	NASQRES	QQYHRLPLS	GP_Gibbs	0.36 0.24 0.51 -0.07 0.09 0.29
HLQQSVLYESRNKNSVA	NASTRES	QQYHRLPLS	GP_Gen	-0.34 -0.42 -0.76 -1.01 -0.86 -0.63
KSSWSVLTESRNKNSVA	DASTRSS	QQYHRLPLS	GP_HC	0.47 0.38 0.30 0.17 0.36 0.51
KFSQSELYESRNKNSVA	NASTRES	QQYHRLPLS	GP_Gen	0.21 -0.42 -0.29 -0.12 -0.26 0.09
HLSDTVMQGSYYKNSVA	QEQTRAD	QQYHRLPLS	En_HC	0.04 0.09 0.09 0.02 -0.05 0.10
HMSALTLQGMRMRNSVA	QMTTREN	QQYDRLPLS	En_Gen	1.13 0.76 0.19 0.68 0.49 1.08
KSSQSVLYEDRNKNSVA	WASTRES	QQCHRLPLS	Ctrl	nd nd nd nd nd nd
KLSTLFYKESKQKNNVA	EMTTRGS	QQYDRLPLS	En_HC	-0.08 0.27 -0.24 -0.14 -0.21 0.14
KAQQSNPYESRNKWSVA	NASTRES	QQYHRLPLS	GP_Gibbs	0.34 -0.02 0.07 -0.02 0.21 -0.01
KCSQSVLYESNNSNAVA	WASTRES	QQVHRLPLS	Ctrl	nd nd nd nd nd nd
MISQLFMYGSRNYNSVA	QASTREK	QQYDRLPLI	En_HC	1.34 1.28 1.21 1.20 1.02 1.41
KLQMQKLYWSRNKNSVA	EASTRES	QQYHRLPLS	GP_Gibbs	0.15 0.19 0.15 0.00 0.08 0.35
KSEQSVLYESRNKNSVA	SASTRES	QQYHRLHLS	Ctrl	1.70 nd nd 1.38 0.80 1.67
TIDDEMPNHGFHWNSIA	GVSTRKQ	QQYDRLPLS	En_Gibbs	1.23 0.92 0.99 1.03 0.88 0.66
KLRVATMLESHNKNSIA	DLSTRGN	QQYHRLPLS	En_HC	0.74 0.30 0.20 0.95 0.18 0.72
KLTMITGLEKVIGNNVA	EMETREE	QQYNRLPLS	En_Gen	0.51 0.72 0.89 0.38 0.99 0.98
KLEQGVDMESRNKNSVA	HASMRES	QQYHRLPLS	GP_Gibbs	0.19 0.14 0.00 -0.01 0.01 0.05
KVSQSVLYEERNKNSVA	NASTRLS	QQYHRLPLS	GP_Gen	0.33 -0.03 0.11 0.02 0.06 0.14
KLNDAYQGDIANNQNIA	SADMLNH	QQYNKLPLS	En_Gibbs	0.41 0.22 0.27 0.08 0.10 0.29
KIQQAVLYESQNKNSVA	WASTRES	QQYHRLPLS	Ctrl	0.61 nd 1.19 1.74 2.27 1.92

A selection of 2 entries from above:

CDR-L1,CDR-L2,CDR-L3,group,"replicates, log10 nM"
KQSQSFLYESRNVNSVA,GASTRDS,QQYHRLPLS,GP_HC,-0.16 -0.29 -0.29 -0.18 -0.38 -0.10
MISQLMNMGQFAINSVA,QASIRNA,QQYDRLPLA,En_Gen,1.48 1.24 1.01 1.21 1.11 0.68

The authors averaged sequences with at least three values out of six and counted those with two or fewer as poor binders.
Nonspecific signal, from three strains lacking the peptide, appeared in 4% of pairings of all light chain designs, centred on 2.64 (5% of these signals below 1.59); values are not corrected for it.
Of ten entries with the parent sequence, four were seen in most replicates (averages 0.34 to 2.37), three in one and three in none, so single entries are noisy.